The list shows a part of the results, in another mix than the full data. The source made the active and inactive calls.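 Rule for the calls: active = compounds whose plate-normalised and pattern-corrected inhibition of the luciferase reporter signal at the single screening dose is 50% or more; inactive = the rest.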
assay: TROY pathway blockers in reporter cells – Q293 LMP1-TROYcd cells, NF-kB luciferase, uHTS, primary screen (AID 1347056); conditions: 4 h, at 10 µM, active compounds read high

SMILES | inhibition
CCOC(=O)Nc1ccc([As](=O)(O)O)c(O)c1 | inactive: -14.3%
O=C(O)C(O)c1ccc(N(CCCl)CCCl)cc1 (stereo not given) | inactive: 4.65%
CC1CCNP(=O)(N(CCCl)CCCl)O1 (stereo not given) | inactive: 8.32%
COP(=O)(OC)N1CC1c1ccccc1 (stereo not given) | inactive: -0.23%
CCCCOc1ccc(C(=O)NCC2(N3CCCCC3)CCCCC2)cc1OC | inactive: 6.33%
Cc1cc(SC(NC(=O)c2ccccc2)C(Cl)(Cl)Cl)nc(C(C)C)n1 (stereo not given) | inactive: -16.1%
O=C(OC1CN2CCC1CC2)c1cccc([N+](=O)[O-])c1 (stereo not given) | inactive: 8.86%
CSc1ccc(Nc2c([N+](=O)[O-])cc([N+](=O)[O-])cc2[N+](=O)[O-])cc1 | inactive: 40.3%
CCOC(=O)c1ccc(NC(=O)C(C)(CCl)SC)cc1 (stereo not given) | inactive: -10.8%
CCC(C)N(CC(C)C)C(=S)SC(NC(C)=O)C(Cl)(Cl)Cl (stereo not given) | inactive: 6.09%
COP1(=S)c2c(C)nn(CCC#N)c2N=C(c2ccc(F)cc2)N1C (stereo not given) | inactive: -3.23%
COC(=O)C1(C)COP(=O)(N2CCCC2)OC1 (stereo not given) | inactive: 5.87%
O=C(O)C(=O)c1ccc(N(CCCl)CCCl)cc1 | inactive: 0.32%
O=C(COc1ccccc1)OC1CN2CCC1CC2 (stereo not given) | inactive: 0.11%
O=C(Nc1ccncc1[N+](=O)[O-])c1ccc([N+](=O)[O-])cc1[N+](=O)[O-] | inactive: 30.2%
COc1ccccc1CNC(=O)COC(=O)C(O)(c1ccccc1)c1ccccc1 | inactive: -2.73%
CC(C)/C=N\N=C(\N)N[N+](=O)[O-] | inactive: 13.8%
CN(C(=O)Cc1ccc(Cl)c(Cl)c1)[C@@H]1CCCC[C@H]1N1CCCC1 | inactive: -4.13%
CC1(CBr)Cn2c(nc3ccccc3c2=O)S1 (stereo not given) | inactive: 12.5%
O=P1(Nc2ccccn2)COc2ccccc2OC1 | inactive: 4.07%
CCC1=CC2Cc3nc4ccc(Cl)cc4c(N)c3C(C1)C2 (stereo not given) | inactive: 23.2%
CCOP(=O)(NC(=NC(C)c1ccccc1)NC(C)c1ccccc1)OCC (stereo not given) | inactive: -14.8%
CCOP(=O)(Nc1ccc(C)cn1)OCC | inactive: 19%
CN(CCCl)Cc1cc(Cl)c(NC2=NCCN2)c(Cl)c1 | inactive: -5.5%
O=P1(N(CCCl)CCCl)NCCC(C(F)(F)F)O1 (stereo not given) | inactive: -5.26%

SMILES | inhibition
Clc1n[nH]nc1-c1nn[nH][15n]1 | inactive: 3.72%
CC(C)(C)C(=O)NC(Sc1ncccn1)C(Cl)(Cl)Cl (stereo not given) | inactive: -7.33%
Cc1ccc(S(=O)(=O)N(CCCN)CCCc2c(C)nc(N)[nH]c2=O)cc1 | inactive: 3.34%
O=P1(Nc2ncccn2)COc2ccccc2OC1 | inactive: 18.1%
Nc1cccc([As](=O)(O)c2ccccc2)c1 | inactive: 5.07%
O=[As](O)(c1cccs1)c1cccs1 | inactive: -15.8%
Cc1ccc(OCC(=O)OC2CN3CCC2CC3)cc1 (stereo not given) | inactive: -15.2%
O=P1(Nc2ccc(Br)cn2)COc2ccccc2OC1 | inactive: 6.49%
NS(=O)(=O)c1cccc(NC(=O)COC(=O)C(O)(c2ccccc2)c2ccccc2)c1 | inactive: 8.41%
Cc1nn(-c2ccccc2)c2c1P(=O)(N1CCOCC1)N(C)C(c1ccccc1)=N2 (stereo not given) | inactive: -28.7%
CC1CCC(C(C)C)C(OP(=O)(Nc2ccccn2)c2ccccc2)C1 (stereo not given) | inactive: 10.3%
Cc1ccc(C(=O)OC2CN3CCC2CC3)cc1 (stereo not given) | inactive: 3.09%
CN(C)C1(CNC(=O)c2ccc(S(C)(=O)=O)cc2)CCCCC1 | inactive: 11.2%
O=C(/C=C/c1ccccc1)OC1CN2CCC1CC2 (stereo not given) | inactive: -23.3%
CCCC1OP(=O)(Nc2ccccc2)OCC1CC (stereo not given) | inactive: 4.07%
NC(=O)Nc1ccc([As](=O)(O)O)cc1 | inactive: 3.23%
N#CCCN(C(=O)COC(=O)C(O)(c1ccccc1)c1ccccc1)c1ccc(F)cc1 | inactive: -13.2%
CN(C(=O)Cc1ccccc1)[C@@H]1CC[C@]2(CCCO2)C[C@H]1N1CCCC1 | inactive: -12.9%
CCOP1(=S)c2c(C)nn(CCC#N)c2N=C(c2ccc(F)cc2)N1C (stereo not given) | inactive: -21.7%
O=[N+]([O-])c1ccc2c(c1)nnn2O | inactive: 3.13%
CN(C)C(=O)c1cc([N+](=O)[O-])cc2c1-c1c(cc([N+](=O)[O-])cc1[N+](=O)[O-])C2=O | inactive: 48%
CN(C(=O)Cc1ccc(Cl)c(Cl)c1)[C@H]1CC[C@@]2(CCCO2)C[C@@H]1N1CCCC1 | inactive: 4.7%
CCOP1(=S)c2c(C)nn(CCC#N)c2N=C(c2ccccc2F)N1C (stereo not given) | inactive: 3.83%
O=P(Nc1nccs1)(Oc1ccccc1)Oc1ccccc1 | inactive: -2.52%
O=P(Nc1nccs1)(c1ccccc1)c1nc2ccccc2s1 (stereo not given) | inactive: 1.37%

SMILES | inhibition
CS(=O)(=O)c1cc([N+](=O)[O-])c2no[n+]([O-])c2c1 | inactive: -5.73%
Nc1ccccc1[As](=O)(O)c1ccccc1 | inactive: -8.31%
O=C(O)COc1ccc([As](=O)(O)O)cc1[N+](=O)[O-] | inactive: -16.7%
Nc1cccc2c([As](=O)(O)O)cccc12 | inactive: -3.21%
Cc1ccc(NCCc2c([N+](=O)[O-])cc([N+](=O)[O-])cc2[N+](=O)[O-])cc1 | inactive: 17.6%
CCCOP(=S)(Nc1nc(N)cc(=O)[nH]1)OCCC | inactive: -6.69%
COc1cc(C2NCCC3(OCCO3)C2(C)C)cc(OC)c1OC (stereo not given) | inactive: 20.1%
CCOP(=O)(Nc1cccc2ccccc12)OCC | inactive: 2.02%
O=C(OC1CN2CCC1CC2)c1ccc(Cl)cc1 (stereo not given) | inactive: -4.48%
O=[As](O)(O)c1cccnc1 | inactive: 10.4%
COc1cc(C(=O)NCC2(N3CCOCC3)CCCCC2)cc(Cl)c1OC(C)C | inactive: 11.4%
CS(=O)(=O)c1ccc(Cl)c(NC(=O)COC(=O)C(O)(c2ccccc2)c2ccccc2)c1 | inactive: -13.9%
Cc1cccc(OCC(=O)OC2CN3CCC2CC3)c1 (stereo not given) | inactive: -8.87%
O=[As](O)(c1cccc(O)c1)c1cccc(O)c1 | inactive: 0.26%
Cc1ccccc1CN(C)C(=O)COC(=O)C(O)(c1ccccc1)c1ccccc1 | inactive: 10.3%
C[C@H]1OP(=O)(Oc2ccccc2)C[C@@H]2O[C@@H]21 (stereo not given in full) | inactive: -8.52%
C[C@@H]1C=CCP(=O)(Oc2ccccc2)O1 (stereo not given in full) | inactive: -14.8%
CC(=O)c1ccc(N2CC2c2ccncc2)cc1 (stereo not given) | inactive: 15.7%
N#C/C(=C\c1ccc(N(CCBr)CCBr)cc1)C(N)=O | inactive: -17.8%
COC(=O)C1(C)COP(=O)(NCc2ccccc2)OC1 (stereo not given) | inactive: -3.56%
CC(=O)Nc1ccc([As](=O)(O)O)c(O)c1 | inactive: -12.1%
CC(=O)Nc1ccc(Oc2c([N+](=O)[O-])cc([N+](=O)[O-])cc2[N+](=O)[O-])cc1 | inactive: -0.35%
O=P1(Nc2nc3ccc(Cl)cc3s2)COc2ccccc2O1 (stereo not given) | inactive: -14.5%
CCOc1ccc(C2=NCC(CBr)S2)cc1 (stereo not given) | inactive: 5.63%
CC(C)(C)C(=O)NC(Sc1ccccc1)C(Cl)(Cl)Cl (stereo not given) | inactive: -3.83%

SMILES | inhibition
CCc1cc(O)c([N+](=O)[O-])c(C)c1[N+](=O)[O-] | inactive: 7.96%
O=C(OC1CN2CCC1CC2)c1ccccc1 (stereo not given) | inactive: -18.6%
CCC(=O)N1C2C3N(C(=O)CC)C1C1N(C(=O)CC)C(C(N1C(=O)CC)N3C(=O)CC)N2C(=O)CC | inactive: 12.4%
COC(=O)c1cc2c(s1)N=C(c1ccccc1)N(C)P2(=O)N1CCOCC1 (stereo not given) | inactive: 2.25%
Cc1ccc(OP(=O)(Nc2ccccn2)Oc2ccc(C)cc2)cc1 | inactive: 12.7%
CC(=O)NC(SC(=S)N(CC(C)C)CC(C)C)C(Cl)(Cl)Cl (stereo not given) | inactive: 12.6%
CC(NC(=O)COC(=O)C(O)(c1ccccc1)c1ccccc1)c1ccccc1 (stereo not given) | inactive: -15.2%
Cc1ccccc1OP(=O)(Nc1ccccn1)Oc1ccccc1C | inactive: 26.4%
O=c1c2cc([N+](=O)[O-])ccc2[nH]c2c([N+](=O)[O-])cc([N+](=O)[O-])cc12 | active: 75.1%
CN(C)C(=O)Oc1noc2ccccc12 | inactive: 5.08%
c1ccc(-c2nn[nH]n2)c(-c2nn[nH]n2)c1 | inactive: 2.63%
Cc1ccc(NP(=O)(Oc2cccc(C)c2)Oc2cccc(C)c2)nc1 | inactive: 6.8%
CCNC(=S)/N=C(\N)N[N+](=O)[O-] | inactive: -5.06%
O=C(NC1CCS(=O)(=O)C1)NP(=S)(Oc1ccccc1)Oc1ccccc1 (stereo not given) | inactive: -13.4%
O=P1(N(CCCl)CCCl)OCCC2CCCCN21 (stereo not given) | inactive: -8.27%
O=[As](O)(c1ccccc1)c1ccc(O)cc1 | inactive: -1.94%
O=[N+]([O-])c1ccc(O)c(/C=N/Nc2ccc([N+](=O)[O-])cc2[N+](=O)[O-])c1 | inactive: 41.1%
O=[N+]([O-])c1ncn(CCn2cnc([N+](=O)[O-])n2)n1 | inactive: 2.96%
CC(=O)NC(SC(=S)N(C)C)C(Cl)(Cl)Cl (stereo not given) | inactive: -20.6%
O=C(OC1CN2CCC1CC2)c1cccc(Cl)c1 (stereo not given) | inactive: 3.41%
C(Cc1nn[nH]n1)Cc1nn[nH]n1 | inactive: 2.87%
Nc1ccc([As](=O)(O)c2ccc([N+](=O)[O-])cc2)cc1 | inactive: -5.69%
O=P(Nc1ccccn1)(c1ccc(Br)cc1)c1ccc(Br)cc1 | inactive: -14.7%
CN(C)C1(CNC(=O)c2ccc(Cl)c(S(N)(=O)=O)c2)CCCCC1 | inactive: 6.71%
COc1ccc(N)c([N+](=O)[O-])c1[N+](=O)[O-] | inactive: 1.41%

— PubChem BioAssay AID1347056 (Sanford-Burnham Center for Chemical Genomics, 2019)
